# Test results taken from US11129827B2 (priority 2017, dated 2021).
# Protein sequences, listed by entry. Tags and fused reporters are not part of them.
# UniProt O35678, whole entry, looked up: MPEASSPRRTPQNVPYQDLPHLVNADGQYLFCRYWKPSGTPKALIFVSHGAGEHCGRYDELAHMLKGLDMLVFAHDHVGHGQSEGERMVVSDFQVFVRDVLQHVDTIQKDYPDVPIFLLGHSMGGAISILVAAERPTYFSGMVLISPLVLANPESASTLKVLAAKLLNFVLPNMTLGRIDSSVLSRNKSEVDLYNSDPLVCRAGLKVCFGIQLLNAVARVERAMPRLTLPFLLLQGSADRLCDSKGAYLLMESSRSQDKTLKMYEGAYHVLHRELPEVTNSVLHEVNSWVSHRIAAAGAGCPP
# UniProt O08914, whole entry, looked up: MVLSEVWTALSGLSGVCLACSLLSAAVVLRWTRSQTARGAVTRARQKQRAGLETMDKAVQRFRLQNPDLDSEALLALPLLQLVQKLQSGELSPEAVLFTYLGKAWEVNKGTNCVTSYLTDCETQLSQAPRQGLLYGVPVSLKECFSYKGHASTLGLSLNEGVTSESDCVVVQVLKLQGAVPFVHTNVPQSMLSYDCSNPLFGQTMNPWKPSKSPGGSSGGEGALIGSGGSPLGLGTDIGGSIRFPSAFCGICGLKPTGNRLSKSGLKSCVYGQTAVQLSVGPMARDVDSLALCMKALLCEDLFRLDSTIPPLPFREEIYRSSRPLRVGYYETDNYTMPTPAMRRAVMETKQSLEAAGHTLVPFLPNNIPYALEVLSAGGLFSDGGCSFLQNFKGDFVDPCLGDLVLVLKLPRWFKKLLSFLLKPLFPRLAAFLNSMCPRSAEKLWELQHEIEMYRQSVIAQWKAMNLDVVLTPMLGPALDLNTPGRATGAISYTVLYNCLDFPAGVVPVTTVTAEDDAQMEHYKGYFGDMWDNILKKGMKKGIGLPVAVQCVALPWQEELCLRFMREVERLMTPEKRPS
# UniProt Q99685, whole entry, looked up: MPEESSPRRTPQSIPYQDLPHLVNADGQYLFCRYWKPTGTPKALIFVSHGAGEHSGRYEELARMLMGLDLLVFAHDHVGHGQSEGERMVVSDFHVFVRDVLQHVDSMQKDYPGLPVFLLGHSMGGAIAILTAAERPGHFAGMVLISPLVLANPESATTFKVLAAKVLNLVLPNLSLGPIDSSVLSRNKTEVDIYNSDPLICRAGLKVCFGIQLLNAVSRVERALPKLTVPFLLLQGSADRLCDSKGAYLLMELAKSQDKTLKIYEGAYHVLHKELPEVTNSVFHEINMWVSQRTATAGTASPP
# UniProt O00519, whole entry, looked up: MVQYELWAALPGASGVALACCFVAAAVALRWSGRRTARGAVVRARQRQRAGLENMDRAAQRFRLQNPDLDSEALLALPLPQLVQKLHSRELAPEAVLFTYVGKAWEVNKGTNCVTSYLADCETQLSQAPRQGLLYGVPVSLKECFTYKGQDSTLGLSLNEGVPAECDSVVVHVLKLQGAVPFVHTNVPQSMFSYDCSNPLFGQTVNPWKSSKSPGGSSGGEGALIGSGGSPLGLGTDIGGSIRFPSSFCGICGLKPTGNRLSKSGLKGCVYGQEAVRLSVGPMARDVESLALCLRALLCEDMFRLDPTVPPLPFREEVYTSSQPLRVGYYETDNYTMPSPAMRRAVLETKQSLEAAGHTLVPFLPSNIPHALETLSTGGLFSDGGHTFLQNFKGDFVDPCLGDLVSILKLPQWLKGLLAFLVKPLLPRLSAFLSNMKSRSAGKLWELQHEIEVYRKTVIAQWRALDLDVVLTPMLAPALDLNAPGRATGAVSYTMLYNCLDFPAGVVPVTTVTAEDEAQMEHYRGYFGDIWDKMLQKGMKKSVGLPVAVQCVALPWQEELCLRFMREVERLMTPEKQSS
# Columns and labels:
# MAGL [1] = target: MAGL (Mus musculus (Mouse), UniProt O35678); assay: Mouse brain proteomes from inhibitor treated mice (oral gavage, ABPP analysis); assay type: in vivo; details: 5 mg/kg oral gavage, C57Bl/6J mouse brain, 4 h following administration
# FAAH [2] = target: FAAH (Mus musculus (Mouse), UniProt O08914); assay: as above; assay type: in vivo; details: 5 mg/kg oral gavage, C57Bl/6J mouse brain, 4 h following administration
# MAGL [3] = target: MAGL (Homo sapiens (Human), UniProt Q99685); details: human prefrontal cortex or cell membrane fractions
# FAAH [4] = target: FAAH (Homo sapiens (Human), UniProt O00519); details: human prefrontal cortex or cell membrane fractions
smiles,measurement,setting,value
Cc1c(CN2CCN(C(=O)Oc3cncc(F)c3)[C@H](C)C2)cccc1C(F)(F)F,MAGL (mouse) % inh. 5 mg/kg,MAGL [1],D (% inhibition is greater than or equal to 0% and less than 25%)
same,FAAH (mouse) % inh. 5 mg/kg,FAAH [2],A (% inhibition is greater than or equal to 75%)
same,MAGL (human) % inh. 1 μM,MAGL [3]; 1 μM,B (% inhibition is greater than or equal to 50% and less than 75%)
same,IC50,MAGL [3]; read-out: MAGL (human) IC50,100 to 1000 nM
same,FAAH (human) % inh. 1 μM,FAAH [4]; 1 μM,A (% inhibition is greater than or equal to 75%)
same,IC50,FAAH [4]; read-out: FAAH (human) IC50,< 100 nM
